Target: cMet enzyme (Homo sapiens, UniProt P08581)
Assay: cMet Homogeneous Time Resolved Fluorescence (HTRF) in vitro assay
Conditions: read-out: c-Met IC50 (HTRF); relative IC50
From the text: This assay is based on HTRF technology and it is used to detect the phosphorylation of biotin labeled tyrosine peptide by cMet enzyme. After the reaction is completed, XL665 labeled streptavidin is used to recognize the biotin unit and a Europium (Eu3+) labeled anti-phospho-tyrosine antibody is used to recognize the phosphorylated tyrosine. The detection process relies on the transfer of energy between the excited Eu3+ and the XL665 labeled streptavidin. The aim of this protocol is to calculate the ability of test compounds to inhibit the phosphorylation of the product of this reaction and calculate their relative IC50 values.
A reference compound, if desired, may be prepared as a 1 mM stock solution in 100% DMSO and test compounds are prepared as 10 mM stock solutions in 100% DMSO. 1 mM reference compound and 10 mM test compounds are pre-diluted to 8 μM and 80 μM 10% DMSO solutions in a 96-well dilution plate. Compounds are serially diluted (1:3) using Tecan Freedom EVO 200 and 10-point dilution curves are generated for each of the compounds tested. 10 μL of serially diluted compounds are transferred to a 96-well assay plate using Temo (Tecan). […] The assay plate is incubated at RT for 60 min before reading the fluorescence signals at 620 nm emission and 665 nm […] in a Victor3 instrument (PerkinElmer Corporation). […]

The chains behind the UniProt entries cited, without tags or fusion partners. Residues count along the entry.
UniProt P08581, 25-1390 limits assumed: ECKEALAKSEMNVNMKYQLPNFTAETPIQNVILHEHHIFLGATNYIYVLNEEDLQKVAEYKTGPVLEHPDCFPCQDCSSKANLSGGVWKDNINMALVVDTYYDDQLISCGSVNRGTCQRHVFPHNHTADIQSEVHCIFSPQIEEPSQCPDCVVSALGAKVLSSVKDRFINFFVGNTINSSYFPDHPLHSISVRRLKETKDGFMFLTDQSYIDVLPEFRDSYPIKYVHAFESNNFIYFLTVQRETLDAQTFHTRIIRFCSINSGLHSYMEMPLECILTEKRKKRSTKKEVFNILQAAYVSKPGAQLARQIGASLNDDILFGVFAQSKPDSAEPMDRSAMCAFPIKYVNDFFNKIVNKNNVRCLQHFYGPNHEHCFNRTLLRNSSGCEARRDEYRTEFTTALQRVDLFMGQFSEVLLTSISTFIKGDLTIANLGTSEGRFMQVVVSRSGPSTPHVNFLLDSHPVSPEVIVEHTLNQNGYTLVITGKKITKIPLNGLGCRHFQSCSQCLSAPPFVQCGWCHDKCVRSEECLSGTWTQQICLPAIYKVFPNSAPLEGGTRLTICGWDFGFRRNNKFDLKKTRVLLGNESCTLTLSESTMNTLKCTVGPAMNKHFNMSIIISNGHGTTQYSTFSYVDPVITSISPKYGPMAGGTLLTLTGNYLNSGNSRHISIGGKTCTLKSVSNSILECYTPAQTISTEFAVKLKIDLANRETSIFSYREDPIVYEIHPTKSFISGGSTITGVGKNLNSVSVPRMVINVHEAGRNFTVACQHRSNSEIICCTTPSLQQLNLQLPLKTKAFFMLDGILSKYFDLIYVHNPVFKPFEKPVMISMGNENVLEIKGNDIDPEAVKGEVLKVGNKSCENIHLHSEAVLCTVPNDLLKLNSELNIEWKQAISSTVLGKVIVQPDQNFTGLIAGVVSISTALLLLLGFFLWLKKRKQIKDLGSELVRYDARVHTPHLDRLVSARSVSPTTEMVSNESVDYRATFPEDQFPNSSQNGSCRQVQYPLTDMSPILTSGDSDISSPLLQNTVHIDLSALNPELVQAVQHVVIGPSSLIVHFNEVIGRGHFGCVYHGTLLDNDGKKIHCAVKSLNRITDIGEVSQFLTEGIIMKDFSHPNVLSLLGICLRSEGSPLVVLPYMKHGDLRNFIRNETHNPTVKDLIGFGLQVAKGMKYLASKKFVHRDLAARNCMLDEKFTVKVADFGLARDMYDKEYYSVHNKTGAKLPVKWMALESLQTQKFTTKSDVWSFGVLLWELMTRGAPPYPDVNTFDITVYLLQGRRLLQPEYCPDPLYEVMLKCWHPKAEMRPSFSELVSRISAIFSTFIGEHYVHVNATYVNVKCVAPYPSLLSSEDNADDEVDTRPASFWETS

- IC50: 15 nM
Compound: Cn1cc(-c2ccc3nnc(Sc4ccc5ncn(C)c5c4)n3n2)cn1
